PMC11124870, “Effect of Antioxidants in Medicinal Products on Intestinal Drug Transporters” (Pharmaceutics, 2024)

The chains behind the UniProt entries cited, without tags or fusion partners. Where a name states a change or a piece, a line headed by the entry shows the natural chain unless it says otherwise.
UniProt O94956: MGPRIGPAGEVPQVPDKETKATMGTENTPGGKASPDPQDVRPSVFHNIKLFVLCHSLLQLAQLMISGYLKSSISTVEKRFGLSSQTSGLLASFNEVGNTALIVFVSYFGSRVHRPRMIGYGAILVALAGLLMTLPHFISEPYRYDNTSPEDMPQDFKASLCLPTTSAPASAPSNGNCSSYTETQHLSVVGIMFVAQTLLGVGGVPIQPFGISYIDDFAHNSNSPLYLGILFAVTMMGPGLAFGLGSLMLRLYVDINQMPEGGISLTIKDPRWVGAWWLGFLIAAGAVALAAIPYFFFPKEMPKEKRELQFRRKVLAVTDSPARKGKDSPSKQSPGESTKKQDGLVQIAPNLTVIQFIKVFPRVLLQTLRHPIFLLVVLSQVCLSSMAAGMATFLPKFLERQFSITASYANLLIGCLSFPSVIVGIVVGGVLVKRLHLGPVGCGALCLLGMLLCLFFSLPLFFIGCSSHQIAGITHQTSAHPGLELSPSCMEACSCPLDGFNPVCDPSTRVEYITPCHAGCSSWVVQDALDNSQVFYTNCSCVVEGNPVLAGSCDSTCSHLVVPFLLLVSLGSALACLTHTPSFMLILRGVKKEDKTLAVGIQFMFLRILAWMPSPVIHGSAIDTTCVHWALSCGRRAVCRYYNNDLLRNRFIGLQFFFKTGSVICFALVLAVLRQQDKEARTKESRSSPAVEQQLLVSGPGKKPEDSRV

Key:
[1] = molecular target: OATP2B1 (Homo sapiens, UniProt O94956); test: Uptake transporter assay, 3H-estrone sulfate uptake in HEK-293-OATP2B1 cells; settings: antioxidant 200 µM, uptake with DMSO set as 100%, mean ± SD, three replicates
[2] = tested on: OATP2B1, P-gp, and BCRP; settings: cited from earlier work

## Cl.N[C@@H](CS)C(=O)O [Cysteine hydrochloride]
[1]
  % Uptake of 3H-ES OATP2B1: 106.5 ± 14.8%

## Cc1cc(C(C)(C)C)c(O)c(C(C)(C)C)c1 [Butylated hydroxytoluene (BH), Butylated hydroxytoluene]
[2]
  Inhibition of intestinal transporters, previous assessment: found not to inhibit these transporters
